# According to patent US20240141294A1, “CGMP COMPLIANT PRODUCTION AND EXPANSION OF PLASMACYTOID DENDRITIC CELLS FROM HEMATOPOIETIC STEM AND PROGENITOR CELLS” (AARHUS UNIVERSITET, priority 2021, published 2024):
# B1: IL-3: cytokine supplement (Peprotech), 20 ng/mL (protein, UniProt P08700 20-152, looked up)
# Interleukin-3: APMTQTTPLKTSWVNCSNMIDEIITHLKQPPLPLLDFNNLNGEDQDILMENNLRRPNLEAFNRAVKSLQNASAIESILKNLLPCLPLATAAPTRHPIHIKDGDWNEFRRKLTFYLKTLENAQAQQTTLSLAIF
# Tested on: Cord-blood derived CD34+HSPCs
# Assay: SR1/IL-3 deprivation during final 3 days of HSPC-pDC differentiation: cell growth and viability
# Assay type: cell-based, human
# Description: Cord-blood derived CD34+HSPCs were cultured in GMP DC media (CellGenix®) supplemented with the cytokines and growth factors Flt3-L (100 ng/mL), SCG (100 ng/mL), TPO (50 ng/mL), IL-3 (20 ng/mL) (Peprotech). In addition, 1 μM of the small molecule inhibitor StemRegenin 1 (SR1, STEMCELL Technologies), 20 μg/mL streptomycin and 20 U/mL penicillin (Gibco, Life Technologies) and 50 μg/mL of ascorbic acid (Sigma Aldrich) was added. Cells were cultured at 37° C., 95% humidity, and 5% CO2 for 17 days, medium was replenished every 2-4 day. The last 3 days, ie. from day 14-17, the culture was split in 4 equal parts. One kept in the same media as previously described, one kept in media without SR1, one kept in media without IL-3 and the last kept in media without both SR1 and IL-3. Viability and total cell numbers during expansion and differentiation of HSPCs was determined using a TC20 Automated Cell Counter (Bio-Rad).
molecule,measurement,setting,value
B1,fold change in number of cells in culture after the 3 days,"named supplement removed day 14-17, standard condition 2.31 (±0.49)",1.85 (±0.40)
same,difference in the number of cells in culture between day 14 and 17,"named supplement removed from media day 14-17, standard condition 22.5×10^6 (±2.15×10^6)",13.7×10^6 (±3.08×10^6) cells
